Laboratory results as given in patent US8697661B2, “Use of spinosyns and spinosyn compositions against herpesviridae viral infections” (priority 2009, dated 2014).

Key:
Vero cells = experiment: Toxicity assay on Vero cells; format: cell-based, African Green Monkey; conditions: 10 μg/ml spinosad
[1] = test system: Herpes Simplex Virus type 1, McIntyre (HSV1); experiment: Viral Plaque Reduction Assay / inhibition of infection assay, HSV1 in Vero cells; format: cell-based; conditions: 10 μg/ml spinosad, day 2

Substance: Spinosad
- toxicity to Vero cells (Vero cells): no toxicity
- plaque size relative to same virus dilution with no spinosad [1]: one third the size
